Source: patent US10048272B2, “High-affinity small molecule formylpeptide receptor ligands from screening of combinatorial mixture-based libraries” (STC.UNM, priority 2013, dated 2018)

Sequences of proteins named here, by UniProt entry; tags and fusion partners are left off.
UniProt P21462, whole entry: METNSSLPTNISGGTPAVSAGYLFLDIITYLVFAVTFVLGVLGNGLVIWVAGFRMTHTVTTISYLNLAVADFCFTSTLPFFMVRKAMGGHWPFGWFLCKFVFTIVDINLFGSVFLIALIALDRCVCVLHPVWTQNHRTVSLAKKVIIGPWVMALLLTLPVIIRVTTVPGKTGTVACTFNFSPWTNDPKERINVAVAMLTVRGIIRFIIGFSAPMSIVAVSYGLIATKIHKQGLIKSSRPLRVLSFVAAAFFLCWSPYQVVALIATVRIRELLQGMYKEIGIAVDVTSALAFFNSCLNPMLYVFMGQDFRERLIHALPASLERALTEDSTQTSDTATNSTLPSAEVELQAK
UniProt P25090, whole entry: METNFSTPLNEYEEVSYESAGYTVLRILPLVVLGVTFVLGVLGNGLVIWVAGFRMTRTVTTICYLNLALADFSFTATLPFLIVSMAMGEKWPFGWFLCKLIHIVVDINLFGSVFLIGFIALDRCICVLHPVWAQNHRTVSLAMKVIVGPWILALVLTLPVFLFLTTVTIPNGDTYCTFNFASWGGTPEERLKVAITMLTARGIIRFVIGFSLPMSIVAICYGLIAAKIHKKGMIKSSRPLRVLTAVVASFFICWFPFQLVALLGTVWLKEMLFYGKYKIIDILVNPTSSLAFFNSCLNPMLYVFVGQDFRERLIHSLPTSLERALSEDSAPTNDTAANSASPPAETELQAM

Tests used:
FPR1 = FPR1 (Homo sapiens, UniProt P21462); test: Duplex flow cytometry receptor binding assay (WPep-FITC fluorescent ligand competition), U937/FPR1 cells; details: for Ki: read-out: Ki, binding to FPR1 (ligand competition), WPep-FITC displacement, U937/FPR1 cells
FPR2 [1] = target: T1, FPR2 (Homo sapiens, UniProt P25090); test: Duplex flow cytometry receptor binding assay (WPep-FITC fluorescent ligand competition), RBL/FPR2 cells; details: for Ki: read-out: Ki, binding to FPR2 (ligand competition), WPep-FITC displacement, RBL/FPR2 cells; for FPR2 selectivity: FPR2 over FPR1
FPR2 [2] = target: T1, FPR2; test: Intracellular calcium mobilization assay, FPR2 cells (agonist and antagonist determinations)
[3] = second compound of the printed pair relative to the first (1754-43 to 1754-49)

Row | Receptor selectivity, FPR1 versus FPR2, in ligand competition binding (in words) (FPR1) | Ki (FPR1) | Ki (FPR2 [1]) | Decrease of activity for FPR1 (potency difference, pKi) (FPR1; [3]) | FPR2 selectivity (FPR2 [1]; as printed in b133 ('nM Ki')) | FPR2 selectivity (FPR2 [1]; no unit) | Increase of activity for FPR2 (potency difference, pKi) (FPR2 [1]; [3]) | Response efficacy (fitted Top), Ca2+ response in FPR2 cells (FPR2 [2]; maximum response relative to control peptide Wpep (WKYMVm)) | Functional activity in FPR2-mediated intracellular Ca2+ response (agonist/antagonist) (FPR2 [2]; result in words) | Compound
1 | selective for FPR1 | 90 nM | > 10000 nM | – | – | – | – | – | – | CCC[C@H]1CNC(=O)C(=O)N1C[C@@H]1CCCN1C[C@@H](CCC)N1C[C@@H](Cc2ccc(O)cc2)N(CC2CCCCC2)C(=O)C1=O
2 | – | > 10000 nM | – | – | – | – | – | – | – | CCC[C@H]1CNC(=O)C(=O)N1C[C@@H]1CCCN1C[C@@H](CCC)N1C[C@@H](Cc2ccc(O)cc2)N(CC2CCC(C)CC2)C(=O)C1=O (stereo partly drawn)
3 | selective for FPR2 | 2320 nM | 33 nM | 1.41 log units | 70 nM | 70 | more than 2.48 log units | 67% | – | CCC[C@H]1CNC(=O)C(=O)N1C[C@@H]1CCCN1C[C@@H](Cc1ccc2ccccc2c1)N1C[C@@H](Cc2ccc(O)cc2)N(CC2CCCCC2)C(=O)C1=O
4 | – | < 100 nM | < 100 nM | – | – | – | – | – | antagonist | CCC[C@H](CN1CCC[C@H]1CN1C(=O)C(=O)NC[C@@H]1C(C)C)N1C[C@@H](Cc2ccc(O)cc2)N(CCc2ccc(-c3ccccc3)cc2)C(=O)C1=O
